Earlier results on one molecule are cited in patent US20160143906A1, “EFFICACIOUS TREATMENT OF NSCLC AND PREDICTIVE CLINICAL MARKER OF THE RESPONSIVENESS OF A TUMOUR TO A TREATMENT” (Boehringer Ingelheim International GmbH, priority 2013, published 2016).

The subject of the data set is tumors with activating EGFR mutations or the Alk translocation. Particulars: monotherapy; non-squamous patients with activating EGFR mutations or Alk translocation; cited from earlier work.

`COc1cc2ncnc(Nc3ccc(F)c(Cl)c3)c2cc1OCCCN1CCOCC1` [gefitinib]: the OS improvement result was “no OS improvements have been observed” and the “median PFS” value is recorded as “around 20 months”.
